Test results: PubChem BioAssay (NCI)
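All cell lines were grown in 96-well plates and treated with compound for 48 hours. Here, GI50 denotes the concentration required for 50% inhibition of growth. At the TGI there is no net growth.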

Tests used:
Assay in all cases: DTP human tumour cell line panel, 48 h
786-0 renal = system: 786-0 renal
A498 renal = system: A498 renal
A549 NSCLC = system: A549 NSCLC
ACHN renal = system: ACHN renal
BT-549 breast = system: BT-549 breast
CAKI-1 renal = system: CAKI-1 renal
CCRF-CEM leukemia = system: CCRF-CEM leukemia
COLO 205 colon = system: COLO 205 colon
DU-145 prostate = system: DU-145 prostate
EKVX NSCLC = system: EKVX NSCLC
HCC-2998 colon = system: HCC-2998 colon
HCT-116 colon = system: HCT-116 colon
HCT-15 colon = system: HCT-15 colon
HL-60(TB) leukemia = system: HL-60(TB) leukemia
HOP-62 NSCLC = system: HOP-62 NSCLC
HOP-92 NSCLC = system: HOP-92 NSCLC
HS 578T breast = system: HS 578T breast
HT29 colon = system: HT29 colon
IGROV1 ovarian = system: IGROV1 ovarian
K-562 leukemia = system: K-562 leukemia
KM12 colon = system: KM12 colon
LOX IMVI melanoma = system: LOX IMVI melanoma
M14 melanoma = system: M14 melanoma
MALME-3M melanoma = system: MALME-3M melanoma
MCF7 breast = system: MCF7 breast
MDA-MB-231 breast = system: MDA-MB-231 breast
MDA-MB-435 = system: MDA-MB-435
MDA-N = system: MDA-N
MOLT-4 leukemia = system: MOLT-4 leukemia
NCI-H226 lung = system: NCI-H226 lung
NCI-H23 lung = system: NCI-H23 lung
NCI-H322M lung = system: NCI-H322M lung
NCI-H460 lung = system: NCI-H460 lung
NCI-H522 lung = system: NCI-H522 lung
NCI/ADR-RES ovarian = system: NCI/ADR-RES ovarian
OVCAR-3 ovarian = system: OVCAR-3 ovarian
OVCAR-4 ovarian = system: OVCAR-4 ovarian
OVCAR-5 ovarian = system: OVCAR-5 ovarian
OVCAR-8 ovarian = system: OVCAR-8 ovarian
PC-3 prostate = system: PC-3 prostate
RPMI-8226 leukemia = system: RPMI-8226 leukemia
RXF 393 renal = system: RXF 393 renal
SF-268 CNS = system: SF-268 CNS
SF-295 CNS = system: SF-295 CNS
SF-539 CNS = system: SF-539 CNS
SK-MEL-2 melanoma = system: SK-MEL-2 melanoma
SK-MEL-28 melanoma = system: SK-MEL-28 melanoma
SK-MEL-5 melanoma = system: SK-MEL-5 melanoma
SK-OV-3 ovarian = system: SK-OV-3 ovarian
SN12C renal = system: SN12C renal
SNB-19 CNS = system: SNB-19 CNS
SNB-75 CNS = system: SNB-75 CNS
SR leukemia = system: SR leukemia
SW-620 colon = system: SW-620 colon
T-47D breast = system: T-47D breast
TK-10 renal = system: TK-10 renal
U251 CNS = system: U251 CNS
UACC-257 melanoma = system: UACC-257 melanoma
UACC-62 melanoma = system: UACC-62 melanoma
UO-31 renal = system: UO-31 renal

FC1(F)SC2C(C1(F)F)C1(Cl)C(Cl)=C(Cl)C2(Cl)C1(Cl)Cl (stereo not given)
GI50 (786-0 renal): 1.53 µM
TGI (786-0 renal): 17.2 µM
GI50 (A498 renal): 0.0482 µM
TGI (A498 renal): 2.8 µM
GI50 (A549 NSCLC): 0.315 µM
TGI (A549 NSCLC): 17.7 µM
GI50 (ACHN renal): 0.552 µM
TGI (ACHN renal): 14.9 µM
GI50 (BT-549 breast): 0.113 µM
TGI (BT-549 breast): 14.1 µM
GI50 (CAKI-1 renal): 2.28 µM
TGI (CAKI-1 renal): 18.5 µM
GI50 (CCRF-CEM leukemia): 1.34 µM
TGI (CCRF-CEM leukemia): 7.61 µM
GI50 (COLO 205 colon): 1.43 µM
TGI (COLO 205 colon): 6.24 µM
GI50 (DU-145 prostate): 2.18 µM
TGI (DU-145 prostate): 18.2 µM
GI50 (EKVX NSCLC): 1.37 µM
TGI (EKVX NSCLC): 14.3 µM
GI50 (HCC-2998 colon): 1.37 µM
TGI (HCC-2998 colon): 19.8 µM
GI50 (HCT-116 colon): 0.101 µM
TGI (HCT-116 colon): 11.3 µM
GI50 (HCT-15 colon): 0.451 µM
TGI (HCT-15 colon): 17.5 µM
GI50 (HL-60(TB) leukemia): 1.71 µM
TGI (HL-60(TB) leukemia): 12.4 µM
GI50 (HOP-62 NSCLC): 8.94 µM
TGI (HOP-62 NSCLC): 21.9 µM
GI50 (HOP-92 NSCLC): 0.0317 µM
TGI (HOP-92 NSCLC): 0.366 µM
GI50 (HS 578T breast): 0.515 µM
TGI (HS 578T breast): 10.5 µM
GI50 (HT29 colon): 1.33 µM
TGI (HT29 colon): 13.9 µM
GI50 (IGROV1 ovarian): 1.55 µM
TGI (IGROV1 ovarian): 17.1 µM
GI50 (K-562 leukemia): 1.34 µM
TGI (K-562 leukemia): 13.7 µM
GI50 (KM12 colon): 2.98 µM
TGI (KM12 colon): 17.3 µM
GI50 (LOX IMVI melanoma): 2.53 µM
TGI (LOX IMVI melanoma): 11.6 µM
GI50 (M14 melanoma): 1.31 µM
TGI (M14 melanoma): 4.72 µM
GI50 (MALME-3M melanoma): 1.11 µM
TGI (MALME-3M melanoma): 5.09 µM
GI50 (MCF7 breast): 0.463 µM
TGI (MCF7 breast): 14.5 µM
GI50 (MDA-MB-231 breast): 5.9 µM
TGI (MDA-MB-231 breast): 25.6 µM
GI50 (MDA-MB-435): 2.33 µM
TGI (MDA-MB-435): 15.1 µM
GI50 (MDA-N): 10.6 µM
TGI (MDA-N): 28 µM
GI50 (MOLT-4 leukemia): 0.893 µM
TGI (MOLT-4 leukemia): 8.04 µM
GI50 (NCI-H226 lung): 7.73 µM
TGI (NCI-H226 lung): 29 µM
GI50 (NCI-H23 lung): 1.42 µM
TGI (NCI-H23 lung): 13.1 µM
GI50 (NCI-H322M lung): 4.39 µM
TGI (NCI-H322M lung): 12.3 µM
GI50 (NCI-H460 lung): 2.21 µM
TGI (NCI-H460 lung): 18.9 µM
GI50 (NCI-H522 lung): 3.43 µM
TGI (NCI-H522 lung): 21.2 µM
GI50 (NCI/ADR-RES ovarian): 1.31 µM
TGI (NCI/ADR-RES ovarian): 20.6 µM
GI50 (OVCAR-3 ovarian): 0.151 µM
TGI (OVCAR-3 ovarian): 6.83 µM
GI50 (OVCAR-4 ovarian): 5.59 µM
TGI (OVCAR-4 ovarian): 20.8 µM
GI50 (OVCAR-5 ovarian): 1.9 µM
TGI (OVCAR-5 ovarian): 13.8 µM
GI50 (OVCAR-8 ovarian): 2.31 µM
TGI (OVCAR-8 ovarian): 18.8 µM
GI50 (PC-3 prostate): 1.86 µM
TGI (PC-3 prostate): 16.4 µM
GI50 (RPMI-8226 leukemia): 2.46 µM
TGI (RPMI-8226 leukemia): 15.1 µM
GI50 (RXF 393 renal): 0.0351 µM
TGI (RXF 393 renal): 2.22 µM
GI50 (SF-268 CNS): 1.86 µM
TGI (SF-268 CNS): 22.1 µM
GI50 (SF-295 CNS): 0.509 µM
TGI (SF-295 CNS): 14.9 µM
GI50 (SF-539 CNS): 5.19 µM
TGI (SF-539 CNS): 21.9 µM
GI50 (SK-MEL-2 melanoma): 2.67 µM
TGI (SK-MEL-2 melanoma): 22.5 µM
GI50 (SK-MEL-28 melanoma): 7.96 µM
TGI (SK-MEL-28 melanoma): 22.3 µM
GI50 (SK-MEL-5 melanoma): 0.485 µM
TGI (SK-MEL-5 melanoma): 5.47 µM
GI50 (SK-OV-3 ovarian): 5.73 µM
TGI (SK-OV-3 ovarian): 14.2 µM
GI50 (SN12C renal): 1.07 µM
TGI (SN12C renal): 19.1 µM
GI50 (SNB-19 CNS): 2.49 µM
TGI (SNB-19 CNS): 18.2 µM
GI50 (SNB-75 CNS): 0.539 µM
TGI (SNB-75 CNS): 15 µM
GI50 (SR leukemia): 1.99 µM
TGI (SR leukemia): 12.9 µM
GI50 (SW-620 colon): 0.433 µM
TGI (SW-620 colon): 10.1 µM
GI50 (T-47D breast): 1.03 µM
TGI (T-47D breast): 13.7 µM
GI50 (TK-10 renal): 7.36 µM
TGI (TK-10 renal): 22 µM
GI50 (U251 CNS): 0.14 µM
TGI (U251 CNS): 15.3 µM
GI50 (UACC-257 melanoma): 2.05 µM
TGI (UACC-257 melanoma): 9.16 µM
GI50 (UACC-62 melanoma): 2.47 µM
TGI (UACC-62 melanoma): 8.33 µM
GI50 (UO-31 renal): 0.724 µM
TGI (UO-31 renal): 14.4 µM
